The values that follow come from US20040039211A1, “Tetrapyrroles” (DUKE UNIVERSITY AND NATIONAL JEWISH MEDICAL AND RESEARCH …, priority 2000, published 2004).

A short description of data set [1]: Cyclic voltammetry, metal-centered redox potential. Type of data set: physicochemical. On the procedure:
Manganese(III) Salen. The compound was prepared by the published procedure (Boucher, J. lnorg. Nucl. Chem. 36:531 (1974)). The uv/vis in water: ε235=3.70×10^4 cm^−1 M^−1, ε279=1.70×10^4 cm^−1 M^−1, ε397=4.60×10^3 cm^−M^−1. The elemental analysis: Anal. Calcd for Mn^IIIsalenCl, C16H14N2O2MnCl: C, 53.88; H, 3.96; N; 7.85. Found: C, 54.02; H, 4.06; N, 7.85. […] Based on the E1/2 of Mn^IIITM-2-PyP^5+, ferrocenemethanol and of K3Fe(CN)6 in water and methanol, the redox potential of Mn^III salen^+ in water was calculated to be E1/2=−0.13 V vs NHE.
Electrochemistry of the Manganese(III) Biliverdin Dimethylester. Measurements were made using a CH Instruments model 600 voltammetric analyzer as described previously(Batinic-Haberle et al, Inorg. Chem. 38:4011 (1999)). A three-electrode system in a small volume (0.5-3.0 mL), with a 3 mm diameter glassy carbon button working electrode (Bioanalytical Systems), Ag/AgCl reference electrode (3 M NaCl, Bioanalytical Systems), and a Pt wire (0.5 mm) as auxiliary electrode, were used. The cyclic votammetry was performed on 0.5 mM (per manganese) methanol/aqueous (90/10, v/v) solutions of the compounds investigated. The ionic strength was kept at 0.10 M (NaCl), and 0.05 M tris buffer was used for pH^* adjustment. For calibration purposes, compounds of different hydrophilicities, […], (Kolthof et al, J. Phys. Chem. 39:945 (1935)) ferrocenemethanol and Mn^IIITM-2-PyP^5+ were studied in both aqueous and methanol/aqueous (90/10, v/v) solutions (I=0.10 M NaCl, 0.05 M tris buffer, pH^* 7.9). In all cases the measured E1/2 was 170 mV more positive in methanolic than in aqueous solution and this value was used to predict the redox potential in aqueous solution from measurement in methanol/aqueous solution. In addition, Mn^IIITM-2-PyP^5+ was added as an internal standard when cyclic voltammetry of {Mn^IIIBVDME}2 in methanol was performed.

Data set [2] deals with SOD-proficient E. coli AB1157.

For the substance “Manganese(III) Biliverdin IX Dimethylester [{Mn^IIIBVDME}2]”, the “E1/2, V vs NHE” value is reported as −0.23 V vs NHE in data set [1] (Mn(III)/Mn(II) couple, extrapolated/calculated redox potential in aqueous solution); “+0.45 V vs NHE” in data set [1] (Mn(III)/Mn(IV) couple, extrapolated redox potential in aqueous solution, listed as compound of FIG. 2C); −0.45 V vs NHE in data set [1] (Mn(III)/Mn(IV) couple, extrapolated redox potential in aqueous solution, listed as ½ {Mn^III/IVBVDME^0/−}2). Moreover, the “effect on growth of SOD-proficient E. coli” value in data set [2] is on record as “did not affect the growth”.
